The values below come from US8303964B2, “Viable non-toxic gram-negative bacteria” (priority 2006, dated 2012).

Converted amounts (≈) assume the structure as drawn.

For one experiment, the system named is BW30270. Put plainly: microbe, parasite or virus in culture. It is filed as cell-based, E. coli K-12. To be noted: Escherichia coli; LB media, 37° C., 18 hours; lowest concentration that completely inhibited growth; read-out: Minimum Inhibitory Concentration BW30270. As for the experimental part:
This example describes Minimum Inhibitory Concentration (MIC) Determinations used in experiments conducted during the course of the present invention. The antibiotics used were from Sigma with the exception of cephaloridine, which was obtained from MicroSource Discovery Systems. Antibiotics were chosen based on their varying mode of action and entry into the cell. The MICs of all antibiotics and drugs studied were measured in LB media using the standard serial microdilution method as described (see, e.g., R. Vuorio, M. Vaara, Antimicrob. Agents Chemother. 36, 826 (1992); herein incorporated by reference in its entirety). Colonies from LB agar plate were scraped and suspended in media (˜10^4 cells per mL) with varying concentrations of antibiotics. Cultures were incubated with shaking (˜200 rpm) at 37° C. for 18 hours at which point growth was scored by visual inspection.

The test system of another experiment is KPM22. It counts as cell-based, E. coli. Particulars: MIC BW30270 versus MIC KPM22. As for the experimental part:
The antibiotics used were from Sigma with the exception of cephaloridine, which was obtained from MicroSource Discovery Systems. Antibiotics were chosen based on their varying mode of action and entry into the cell. […] Colonies from LB agar plate were scraped and suspended in media (˜10^4 cells per mL) with varying concentrations of antibiotics. Cultures were incubated with shaking (˜200 rpm) at 37° C. for 18 hours at which point growth was scored by visual inspection.

As to `CC[C@H]1OC(=O)[C@H](C)[C@@H](O[C@H]2C[C@@](C)(OC)[C@@H](O)[C@H](C)O2)[C@H](C)[C@@H](O[C@@H]2O[C@H](C)C[C@H](N(C)C)[C@H]2O)[C@](C)(O)C[C@@H](C)C(=O)[C@H](C)[C@@H](O)[C@]1(C)O` [Erythromycin], the MIC in the experiment with BW30270 was found to be 128 µg/mL (≈ 174 µM).

Regarding `CO[C@@H]1[C@@H](OC(N)=O)[C@@H](O)[C@H](Oc2ccc3c(O)c(NC(=O)c4ccc(O)c(CC=C(C)C)c4)c(=O)oc3c2C)OC1(C)C` [Novobiocin], the MIC with BW30270 was 256 µg/mL (≈ 418 µM).

For `CN[C@H](CC(C)C)C(=O)N[C@H]1C(=O)N[C@@H](CC(N)=O)C(=O)N[C@H]2C(=O)N[C@H]3C(=O)N[C@H](C(=O)N[C@H](C(=O)O)c4cc(O)cc(O)c4-c4cc3ccc4O)[C@H](O)c3ccc(c(Cl)c3)Oc3cc2cc(c3O[C@@H]2O[C@H](CO)[C@@H](O)[C@H](O)[C@H]2O[C@H]2C[C@](C)(N)[C@H](O)[C@H](C)O2)Oc2ccc(cc2Cl)[C@H]1O` [Vancomycin], in the experiment on KPM22, the “Fold Difference in MIC” value came to 8 fold.
